Test results taken from patent US20230106519A1, “GOLD(III)-BIGUANIDE PRODRUGS, METHODS OF PREPARATION AND USES THEREOF” (National University of Singapore, priority 2020, published 2023).

Test: Stability in ammonium carbonate buffer by high resolution ESI-MS
Settings: ammonium carbonate buffer pH 7.4, 37° C., 1, 3 and 24 hours

[Au^III(2-phenylpyridine)(metformin)]PF6 [Compound 1met]
stability, detection of molecular ion [M]+: stable for 24 hours
